From ChEMBL document CHEMBL3351808, “Thiophenes, polyacetylenes and terpenes from the aerial parts of Eclipata prostrate” (Bioorg Med Chem, 2014)

Chains of the proteins cited; added tags and fusions are not shown.
UniProt P27487, whole entry: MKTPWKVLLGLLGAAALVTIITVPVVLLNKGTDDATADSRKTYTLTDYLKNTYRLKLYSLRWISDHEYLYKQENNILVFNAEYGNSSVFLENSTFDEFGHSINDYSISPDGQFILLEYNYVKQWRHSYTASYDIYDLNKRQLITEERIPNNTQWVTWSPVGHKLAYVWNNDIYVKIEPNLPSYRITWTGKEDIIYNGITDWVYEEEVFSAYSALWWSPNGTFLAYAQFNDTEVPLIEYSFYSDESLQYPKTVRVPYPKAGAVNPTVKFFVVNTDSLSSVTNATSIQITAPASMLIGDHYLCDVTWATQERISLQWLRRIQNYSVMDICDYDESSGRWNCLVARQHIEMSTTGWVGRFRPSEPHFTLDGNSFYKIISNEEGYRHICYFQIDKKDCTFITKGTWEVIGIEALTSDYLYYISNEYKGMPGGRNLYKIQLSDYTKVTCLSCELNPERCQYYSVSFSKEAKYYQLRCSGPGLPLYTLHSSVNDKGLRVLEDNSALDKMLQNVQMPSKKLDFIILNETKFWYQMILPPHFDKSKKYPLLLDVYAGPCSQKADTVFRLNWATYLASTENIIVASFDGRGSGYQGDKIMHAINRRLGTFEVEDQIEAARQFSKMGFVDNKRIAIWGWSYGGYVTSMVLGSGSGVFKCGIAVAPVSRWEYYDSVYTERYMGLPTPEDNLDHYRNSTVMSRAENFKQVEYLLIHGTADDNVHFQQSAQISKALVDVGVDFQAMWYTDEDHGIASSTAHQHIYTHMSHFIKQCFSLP

Target: Dipeptidyl peptidase 4 (Homo sapiens, UniProt P27487)
Test: Inhibition of DPP4 in human plasma using Gly-Pro-AMC substrate incubated for 20 mins by fluorometry

CC[C@H](C)[C@H](N)C(=O)N1CCC[C@H]1C(=O)N[C@H](C(=O)O)[C@@H](C)CC [DIPROTIN A]
IC50: 2.53 µM
